Data: patent US8080581B2, “Cosmetics” (Shiseido Company Ltd., priority 2006, dated 2011)

Assay: Test of solubilizing ability (turbidity)
Format: physicochemical
Details: 3 mass % solubilizing agent, 5 mass % ethanol, 25° C.
Description: As the material to be solubilized, five kinds of oil components, namely, vitamin E acetate, trioctanoin, isohexadecane, decamethylcyclopentasiloxane, and perfume were used.
The solubilizing ability was investigated with use of the above-described respective samples. The solubilizing ability was determined by measuring the turbidity at 25° C. with an integration type turbidimeter TR-35 (manufactured by the former Mitsubishi Chemical Corporation, which is presently Dia Instruments Co. Ltd.) and a glass cell (width: 50 mm, depth: 30 mm, height: 50 mm; manufactured by Mitsubishi Chemical Corporation).

[1] = 0.05 mass % material to be solubilized
[2] = 0.1 mass % material to be solubilized

DL-α-Tocopherol ethylene oxide addition product [Comparative Example 1]
Turbidity, Decamethylcyclopentasiloxane [1]: 53.2 | Turbidity, Isohexadecane [1]: 46.2 | Turbidity, Perfume [1]: 5.8 | Turbidity, Trioctanoin [1]: 6.4 | Turbidity, Vitamin E acetate [1]: 2.0 | Turbidity, Decamethylcyclopentasiloxane [2]: 76.1 | Turbidity, Isohexadecane [2]: 78.9 | Turbidity, Perfume [2]: 6.7 | Turbidity, Trioctanoin [2]: 41.9 | Turbidity, Vitamin E acetate [2]: 5.3

DL-α-Tocopherol propylene oxide/ethylene oxide addition product [Comparative Example 2]
Turbidity, Decamethylcyclopentasiloxane [1]: 38.5 | Turbidity, Isohexadecane [1]: 22.6 | Turbidity, Perfume [1]: 15.1 | Turbidity, Trioctanoin [1]: 5.7 | Turbidity, Vitamin E acetate [1]: 10.2 | Turbidity, Decamethylcyclopentasiloxane [2]: 76.2 | Turbidity, Isohexadecane [2]: 67.8 | Turbidity, Perfume [2]: 5.4 | Turbidity, Trioctanoin [2]: 15.1 | Turbidity, Vitamin E acetate [2]: 10.6
